From US7739055B2, “Methods and systems for generating and evaluating peptides” (priority 2005, dated 2010) come the findings set out here.

The conditions of the data set: in words.

`CC[C@H](C)[C@H](NC(=O)[C@@H](NC(=O)[C@H](CS)NC(=O)[C@H](C)NC(=O)[C@H](CCCCN)NC(=O)[C@H](CO)NC(=O)[C@H](CCCCN)NC(=O)[C@H](CCCCN)NC(=O)[C@@H](NC(=O)[C@H](Cc1ccccc1)NC(=O)[C@@H](NC(=O)CNC(=O)[C@H](CC(C)C)NC(=O)[C@@H](NC(=O)[C@H](CO)NC(=O)CNC(=O)CN)[C@@H](C)O)C(C)C)C(C)C)C(C)C)C(=O)N[C@H](C(=O)N1CCC[C@H]1C(=O)N[C@@H](Cc1ccc(O)cc1)C(=O)O)C(C)C`: the solubility result is given as “Not soluble”.
